In paper PMC5732813, “Novel piplartine-containing ruthenium complexes: synthesis, cell growth inhibition, apoptosis induction and ROS production on HCT116 cells” (Oncotarget, 2017):

Tests used:
[1] = 31P{1H} NMR; for stability in coordinating solvents: DMSO, methanol or DMF; for stability in noncoordinating solvents: acetone, dichloromethane or chloroform
[2] = methanol/water solution (57/43)

| Substance | stability in coordinating solvents [1] | stability in noncoordinating solvents [1] | time to complete labilization of piplartine ([1]; acetone/water (1:9) mixture) [h] | stability in the HPLC eluent [2] |
| --- | --- | --- | --- | --- |
| [Ru(piplartine)(dppf)(bipy)](PF6)2 [Complex 1] | instability | at least 72 h | – | – |
| [Ru(piplartine)(dppb)(bipy)](PF6)2 [Complex 2] | instability | at least 72 h | 24 | instability |
